Measured values from patent US20030186950A1, “Use of n-heterocyclic substituted salicylates for inhibition of cellular uptake of cystine” (priority 2000, published 2003).

System: Nb2-SFJCD1 rat lymphoma cells
Assay: Culture growth inhibition assay in Nb2-SFJCD1 lymphoma cultures
Conditions: cystine at ca. 3-fold elevated levels (FIG. 5)

SMILES: O=C([O-])c1ccccc1O.[Na+] [Salicylate, sodium, sodium salicylate]
- Change of growth-inhibitory effect by elevated cystine: only marginally affected
